Where “and” joins values, the source holds several entries; their conditions need not be identical. Identical values can stand only once.
Tests used:
AXL kinase = AXL kinase (Homo sapiens, UniProt P30530); test: IC50 test on AXL kinase (Z′-LYTE FRET kinase activity detection); type: biochemical; conditions: read-out: AXL IC50; Z′-LYTE FRET peptide assay, 1 h reaction
[1] = target: FLT-3 kinase domain recombinant protein (Homo sapiens, UniProt P36888); test: Inhibition rate on FLT3 kinase (ELISA); conditions: two values per compound

Chains of the proteins cited; added tags and fusions are not shown. Residues count along the entry.
UniProt P30530, 26-894 limits assumed: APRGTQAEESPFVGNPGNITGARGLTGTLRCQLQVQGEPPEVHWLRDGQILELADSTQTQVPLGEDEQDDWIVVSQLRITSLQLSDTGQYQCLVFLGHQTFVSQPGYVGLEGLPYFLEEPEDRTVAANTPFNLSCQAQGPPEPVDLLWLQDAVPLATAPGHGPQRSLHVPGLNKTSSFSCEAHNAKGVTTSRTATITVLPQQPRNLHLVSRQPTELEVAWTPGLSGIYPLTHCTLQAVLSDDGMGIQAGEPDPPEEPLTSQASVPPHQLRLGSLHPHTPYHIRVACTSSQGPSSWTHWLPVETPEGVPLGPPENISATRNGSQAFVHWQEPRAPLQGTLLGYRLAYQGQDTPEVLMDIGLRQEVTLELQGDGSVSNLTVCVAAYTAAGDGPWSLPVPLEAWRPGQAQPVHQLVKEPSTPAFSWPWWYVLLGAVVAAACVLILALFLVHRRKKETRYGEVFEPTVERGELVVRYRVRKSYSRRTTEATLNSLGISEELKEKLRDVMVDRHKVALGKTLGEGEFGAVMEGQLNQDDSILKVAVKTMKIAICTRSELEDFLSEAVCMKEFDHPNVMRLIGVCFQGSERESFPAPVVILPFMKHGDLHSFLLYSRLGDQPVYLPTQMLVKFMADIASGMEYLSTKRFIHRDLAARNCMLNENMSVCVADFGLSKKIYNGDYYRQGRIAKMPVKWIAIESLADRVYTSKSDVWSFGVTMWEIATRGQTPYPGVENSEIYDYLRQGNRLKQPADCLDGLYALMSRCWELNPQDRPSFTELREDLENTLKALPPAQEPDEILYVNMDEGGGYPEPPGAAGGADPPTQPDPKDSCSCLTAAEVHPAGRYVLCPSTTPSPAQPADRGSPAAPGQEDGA
UniProt P36888, 610-943 limits assumed: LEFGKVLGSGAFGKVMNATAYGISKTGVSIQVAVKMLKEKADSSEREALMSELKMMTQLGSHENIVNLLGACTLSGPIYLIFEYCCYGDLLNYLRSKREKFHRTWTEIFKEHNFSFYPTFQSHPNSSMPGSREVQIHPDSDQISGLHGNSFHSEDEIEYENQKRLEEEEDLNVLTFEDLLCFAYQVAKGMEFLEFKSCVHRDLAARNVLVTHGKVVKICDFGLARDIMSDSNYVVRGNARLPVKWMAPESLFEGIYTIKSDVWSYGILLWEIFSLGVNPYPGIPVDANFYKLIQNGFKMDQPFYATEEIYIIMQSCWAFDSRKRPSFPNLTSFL

Structure (SMILES): CCc1ccc2c(c1)c(=O)c(C(=O)Nc1ccc(Oc3ncnc4[nH]cc(-c5ccccc5)c34)cc1F)c(C)n2C
- IC50 (AXL kinase): 42 nM
- Inhibition rate (%) against receptor tyrosine kinase FLT-3 ([1]; compound 10 nM, 0.01 µM): 46.9% and 50.0%
- Inhibition rate (%) against receptor tyrosine kinase FLT-3 ([1]; compound 100 nM, 0.1 µM): 47.1% and 53.6%
- Inhibition rate (%) against receptor tyrosine kinase FLT-3 ([1]; compound 1000 nM, 1 µM): 81.8% and 67.6%

Reference: US10683278B2 (JINAN UNIVERSITY, priority 2015, dated 2020)
